The values below come from US9102669B2, “Substituted piperidinyl-pyridazinyl derivatives useful as SCD 1 inhibitors” (Janssen Pharmaceutica NV, priority 2011, dated 2015).

The chains behind the UniProt entries cited, without tags or fusion partners. Where a name states a change or a piece, a line headed by the entry shows the natural chain unless it says otherwise.
UniProt P07308: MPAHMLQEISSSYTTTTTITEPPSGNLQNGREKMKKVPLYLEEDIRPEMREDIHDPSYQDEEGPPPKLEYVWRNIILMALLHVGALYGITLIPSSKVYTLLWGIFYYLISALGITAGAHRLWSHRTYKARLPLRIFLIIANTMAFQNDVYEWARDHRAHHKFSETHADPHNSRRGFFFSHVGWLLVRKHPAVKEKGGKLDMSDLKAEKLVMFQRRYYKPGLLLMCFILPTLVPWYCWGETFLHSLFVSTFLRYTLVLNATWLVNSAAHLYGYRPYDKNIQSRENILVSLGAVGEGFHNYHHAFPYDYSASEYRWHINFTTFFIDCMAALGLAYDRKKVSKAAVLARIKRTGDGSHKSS
UniProt O00767: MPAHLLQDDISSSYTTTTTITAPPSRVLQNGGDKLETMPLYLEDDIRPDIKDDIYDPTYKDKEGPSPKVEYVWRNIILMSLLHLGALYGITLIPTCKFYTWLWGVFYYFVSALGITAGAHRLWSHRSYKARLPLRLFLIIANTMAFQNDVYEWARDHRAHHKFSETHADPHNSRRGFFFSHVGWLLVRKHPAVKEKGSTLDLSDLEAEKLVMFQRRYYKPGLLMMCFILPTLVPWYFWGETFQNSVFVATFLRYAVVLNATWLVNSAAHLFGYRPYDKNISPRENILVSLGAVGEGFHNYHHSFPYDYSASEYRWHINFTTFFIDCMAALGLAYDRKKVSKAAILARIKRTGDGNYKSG

Assay [1] concerns the target SCD1 (Rattus norvegicus (Rat), UniProt P07308). Put plainly: SCD1 enzymatic assay in rat liver microsomes (RLM). In kind it is biochemical.
Assay [2] addresses SCD1 (Homo sapiens (Human), UniProt O00767). Put plainly: SCD1 13C-palmitic acid assay in A431 cells. The class given is cell-based. The conditions noted are these: read-out: A431 cells 13C-PA IC50.

“And” between values parts separate entries of the source, which are not always exact repeats. Equal entries are not always repeated.

As to `Cn1cc(-c2ccc(N3CCC(N4CCc5ccc(F)cc54)CC3)nn2)cn1` [Compound #11, 6-fluoro-1-(1-(6-(1-methyl-1H-pyrazol-4-yl)pyridazin-3-yl)piperidin-4-yl)indoline], the IC50 against SCD1 [1] was 21 nM and 19 nM and 91 nM and 16 nM. Besides, on SCD1 [1] (1 μM test compound), the “% Inh.@ 1 μM” value is 100% and 94% and 102%; the inhibition at 1 µM stood at 99%.
In the case of `Cn1cc(-c2ccc(N3CCC(N4CCc5ccc(C(F)(F)F)cc54)CC3)nn2)cn1` [Compound #60, 1-(1-(6-(1-methyl-1H-pyrazol-4-yl)pyridazin-3-yl)piperidin-4-yl)-6-(trifluoromethyl)indoline], the IC50 on SCD1 [1] came to 173 nM. At SCD1 [1] (1 μM test compound), 1 µM produced 81% inhibition.
In the case of `Cn1cc(-c2ccc(N3CCC(n4ccc5ccc(F)cc54)CC3)nn2)cn1` [Compound #63, 6-fluoro-1-(1-(6-(1-methyl-1H-pyrazol-4-yl)pyridazin-3-yl)piperidin-4-yl)-1H-indole], on SCD1 [2], the IC50 is 25 nM.

The term IC50 denotes the point on the concentration scale where inhibition reaches its midpoint. Broadly, the inhibition is the change of the read-out against control, counted positive when it falls. Low values mean a response near the control, high ones a response far below the control.
